Source: patent publication US20040259766A1, “Use of glutamate, glutamate derivatives or metabolites, glutamate analogues or mixtures thereof for the manufacture of a composition for the treatment of osteoporosis” (priority 2004, published 2004)

What was measured:
humerus and femur = test: Architectural and geometric properties of humerus and femur of piglets; format: in vivo, pig; settings: piglets at 35 days of postnatal life; 0.4 g/kg b.w. oral once a day; mean ± SEM
Description: All piglets suckled sow milk before weaning. After weaning at the age of 28 days piglets were fed ad libitum with a standard mixture Premix prestarter (PP) (Food plant-Motycz, Poland) and free access to water was allowed. Piglets were allotted to three experimental trials:
2—Second group, receiving 0.4 g/kg/b.w. of L-alanyl-L-glutamine (ala-gin), (2 ml solution/kg b.w.)
3—Third group, receiving 0.4 g/kgtb.w. α-keto-glutaric sodium salt, AKG, (2 ml solution/kg b.w.) once a day from the first day to the 35th day of life.
Animal weight gain was monitored every day before oral administration of saline, ala-gln or AKG. At the age of 35 days, piglets were sacrificed, eviscerated and bones were sampled.
Architectural and geometric properties of bone were estimated based on measurements of horizontal and vertical cross section as well as interior and exterior diameter of the bone.
Mean relative wall thickness (MRWT) expresses the ratio of wall to lumen measures and serves as an indicator in the process of architectural adaptation of bone to physiological stress during the growth of the body. When the lumen increases with unchanged wall thickness the MRWT decreases but bone resistance to strain increases.

ulna bone = settings: group A, 0.8 g/kg body weight oral, p<0.01

## O=C(O)CCC(=O)C(=O)O [AKG, alpha-ketoglutaric acid]
Humerus and femur
  Mean relative wall thickness (MRWT) femur: 0.70 ± 0.07
  Mean relative wall thickness (MRWT) humerus: 0.57 ± 0.08
Ulna bone; left wing control (intact)
  BMD-Vi (Volumetric index) of the ulna bone, difference compared to saline treated turkeys: 14.8%
Ulna bone; right wing experimental (neurectomized, fracture of the ulnae)
  BMD-Vi (Volumetric index) of the ulna bone, difference compared to saline treated turkeys: about 35.7%

Where two headings read alike, the source gives them in different places.
